Paper doi:10.1101/767673v1 (bioRxiv, 2019)

Protein sequences, listed by entry. Tags and fused reporters are not part of them. Lines headed by an entry give the natural chain unless they say otherwise; changes in a name come on top.
UniProt Q00987: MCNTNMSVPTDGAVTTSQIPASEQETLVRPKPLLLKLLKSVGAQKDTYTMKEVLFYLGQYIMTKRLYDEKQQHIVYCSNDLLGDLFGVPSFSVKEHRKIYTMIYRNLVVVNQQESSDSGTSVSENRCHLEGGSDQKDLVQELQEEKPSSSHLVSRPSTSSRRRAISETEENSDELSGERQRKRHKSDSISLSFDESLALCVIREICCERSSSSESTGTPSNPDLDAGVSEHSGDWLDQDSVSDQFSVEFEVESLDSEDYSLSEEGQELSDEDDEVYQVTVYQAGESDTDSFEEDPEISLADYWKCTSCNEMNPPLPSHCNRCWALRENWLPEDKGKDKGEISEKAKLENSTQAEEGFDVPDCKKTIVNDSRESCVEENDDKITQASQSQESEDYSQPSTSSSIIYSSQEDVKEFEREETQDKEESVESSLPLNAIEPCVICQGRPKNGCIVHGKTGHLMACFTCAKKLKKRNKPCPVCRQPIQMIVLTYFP

Target: human Mdm2 protein (amino acids 1–125) (Homo sapiens, UniProt Q00987)
Experiment: Isothermal titration calorimetry
Format: binding
Settings: PBS pH 7.2, 3% DMSO, 0.001% Tween-20, duplicates

CC(C)C[C@H]1NC(=O)[C@@H](CCCCN)NC(=O)[C@@H](CCC(=O)O)NC(=O)[C@@H](Cc2ccc(C(F)(F)F)cc2)NC(=O)[C@@H](CC(N)=O)NC(=O)[C@@](C)(NC(=O)[C@@H](Cc2ccc(O)cc2)NC(=O)[C@@H](Cc2c[nH]c3cc(F)ccc23)NC(=O)[C@@H](C)NC(=O)[C@H](N)[C@H](C)O)CCCCCC/C=C\CCC[C@](C)(C(N)=O)NC(=O)[C@@H](CC(C)C)NC1=O [^dPMI-δ(5-12)]
ITC enthalpy of binding (ΔH) to Mdm2: -8.25 kcal/mol
